Literature values, collected in US20240016441A1, “SODIUM L-LACTATE INFUSION FOR EARLY DIAGNOSIS OF PARKINSON'S DISEASE” (priority 2023, published 2024).

Experiments:
[1] = 84 mEq/L at 5 ml*kg^-1*h^-1 for 3.5 hours, single anesthetized patient
[2] = baseline 8.1 mg/dL
[3] = 350 mmol/L; priming 150 or 300 μmol/kg over 5 min, then 10 or 20 μmol*kg^-1*min^-1 for ~120 min

Compound	maximum L-lactate whole-blood concentration [1] [mg/dL]	L-lactate level at which safety has been demonstrated ([2]; anesthetized patients) [mg/dL]	L-lactate level at which safety has been demonstrated ([2]; non-anesthetized patients) [mg/dL]	maximum L-lactate plasma concentration [3] [mg/dL]
C[C@H](O)C(=O)[O-].[Na+] [sodium L-lactate]	41.3	41.3	24.9	–
[13CH3]C(O)C(=O)[O-].[Na+] [sodium [3-^13C] L-lactate]	–	–	–	24.9

Like-named read-outs stand apart in the source and are kept apart here.
